# Measurements published in PMC11387697, “Defining the functional properties of cyclopropane fatty acid synthase from Pseudomonas aeruginosa PAO1” (The Journal of Biological Chemistry, 2024).
# Tested on: C[S+](CC[C@H](N)C(=O)O)C[C@H]1O[C@@H](n2cnc3c(N)ncnc32)[C@H](O)[C@@H]1O
# Assay: cells, lysate or membranes named
# Conditions: 50:50 POPE:POPG 100 nm unilamellar vesicles 1 mg/ml, 200 mM potassium acetate, pH 7.5, 37 °C
substance,measurement,value
PA-CFAS (Pseudomonas aeruginosa PAO1),Km,26 ± 3 µM
same,kcat,0.0417 ± 0.0013 s⁻¹
